miR-21 reporter: raises the signal of a miR-21 reporter | Potency, µM (doses to about 38.3 µM), for inactives: top-dose reporter change, positive = more light | HeLa miR-21 FLuc reporter, luciferase, 48 h | AID 2288 | 340,000 tested, under 10 active; active = well fitted rising curve with a large enough effect; inconclusive = small, poorly fitted or top-dose-only effect; inactive = no such curve, though single readings can be large or run the other way;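 also: % of control where 0% means no effect; miR-21 action dims this reporter so a rising signal means less miR-21 action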
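Compounds were titrated across several concentrations (up to approximately 40 uM) and incubated 48 hours with HeLa miR-21-FLuc reporter cells (miR-21 target sequence downstream of FLuc, endogenous miR-21). Readout was firefly luciferase luminescence after lytic detection reagent.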
GLP1R ag: activates the human GLP-1 receptor. P43220. HEK293 GLP-1R CRE-luciferase, luminescence, 4-6 h; cells express a hypersensitive GLP-1R form. Potency, µM (top dose mostly 45.6 µM), for inactives: at the highest dose activation, hits mostly activators. 380,000 compounds, 0.007% hits; further: potency means the concentration at half of the fitted maximal effect; % of control where 0% means no effect
PTHR1 ag: agonists of human PTHR1 parathyroid hormone receptor; HEK293 GP2 PTHR1 cells, GloSensor cAMP luminescence, 1 h; Potency, µM (doses to about 115 µM), for inactives: top-dose activation, actives largely listed as activators; 410,000 compounds, 0.075% hits; AID 743266; further: potency means the concentration at half of the fitted maximal effect; nearly all actives have a fitted effect of over 55% in size
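HEK-293-derived GP2 cells expressing PTHR1 and a GloSensor cAMP reporter, 3,000/well, plated overnight, given luciferin plus IBMX (each 0.5 mM as added) for 1 h at 37 °C, then compound for 1 h at 37 °C. Luminescence was read after 15 min at room temperature.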
HEK293 tox: cytotoxicity in counter-screen for GLP-1R inverse agonists; Potency, µM (series often up to 38.3 µM), for inactives: at the highest dose activity change, negative = inhibition, usual class: inhibitors; AID 624418; HEK293 cAMP-luciferase reporter cells, luminescence, 24 h; 410,000 compounds, 0.13% hits;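 further: loss of luciferase light is scored as toxicity; potency means the concentration at half of the fitted maximal effect; on the % scale 0 is the no-effect control and ±100 the full control effect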
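MLSMR compounds, 24 hr on cells at 37 deg C/5% CO2; luminescence after luciferase reagent (12 min RT). Inhibition counted as the undesired cytotoxic outcome.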
GLP1R inv ag: inverse agonists of human GLP-1 receptor; HEK293 GLP-1R CRE-luciferase, luminescence, 24 h; GLP-1R form is constitutively active; Potency, µM (titrated, usually from 38.3 µM), without a hit: top-dose activity change, negative = inhibition, hits mostly inhibitors; P43220; AID 624417; 410,000 compounds, 1.6% hits; further: potency means the concentration at half of the fitted maximal effect; on the % scale 0 is the no-effect control and ±100 the full control effect; nearly all actives have a fitted effect of over 55% in size
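Readout was luciferase luminescence, measured 12 min after detection reagent at room temperature. Beforehand, GLP-1R reporter HEK293 cells had sat 12 h, then received compounds for 24 hr at 37 deg C.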
Pin1 inh: inhibitors of human Pin1; Q13526; Pin1 FP peptide displacement, HiFluor488, 10 min; Potency, µM (top dose mostly 115 µM), for the others: top-dose activity, negative = inhibition, actives largely listed as inhibitors; 390,000 compounds, 0.009% hits; active means well fitted inhibition curve with a large enough effect in the polarisation, with a control signal flat, not every such curve was filed as active; inconclusive means small, poorly fitted or top-dose-only effect, or effect the other way, or a change in a side signal; inactive means no such curve, though single readings can be large or run the other way; the % refers to the polarisation; further: potency means the concentration at half of the fitted maximal effect; on the % scale 0 is the no-effect control and ±100 the full control effect
* = called active by the depositor; i = inactive; ? = inconclusive; nt = no result; [ ] = another dose, or the depositor's remark. In the library only some 1.7% were active in any assay of this set; here they are far more common. Unless noted, the call rests on the fitted dose curve; in most records, active means well fitted curve in the direction sought with a large enough effect; inconclusive means small, poorly fitted or top-dose-only effect, or another doubt; inactive means no such curve, though single readings can be large; an effect the other way counts as inactive or inconclusive.

Key to letters – A = miR-21 reporter; B = GLP1R ag; C = PTHR1 ag; D = HEK293 tox; E = GLP1R inv ag; F = Pin1 inh
> CCCCN(c1ccccc1)S(=O)(=O)c1cccc(C(=O)Nc2c(C)n(C)n(-c3ccccc3)c2=O)c1
  A: nt | B: -35% | C: -66% | D: -7% | E: 11µM* | F: -12%

> CC(C)CCNC(=S)Nc1ccc([N+](=O)[O-])cc1
  A: 28% | B: -1% | C: -41% | D: ? | E: 11µM* | F: -2%

> CC(C)c1ccc(CCNC(=O)c2ccc([N+](=O)[O-])cc2)cc1
  A: -5% | B: 13% | C: -32% | D: -16% | E: 3.5µM* | F: -9%

> CC(C)CNC(=S)NC(=O)c1ccc([N+](=O)[O-])cc1
  A: -24% | B: -6% | C: i | D: ? | E: 10µM* | F: 0%

> N#Cc1ccc(S(=O)(=O)N2CCN(c3nc(-c4ccccc4)nc4ccccc34)CC2)cc1
  A: nt | B: nt | C: nt | D: nt | E: nt | F: -3%

> Cc1c(Cl)ccc2c(C(=O)NCCN3CCCCC3)cc(-c3ccccn3)nc12
  A: -5% | B: 5% | C: i | D: ? | E: 3.5µM* | F: -1%

> Cc1c(Cl)ccc2c(C(=O)NCCCn3nccc3C)cc(-c3ccccn3)nc12
  A: 3% | B: 0% | C: i | D: -4% | E: ? | F: 6%

> C/C(Cl)=C\Cn1c(O)c(N=NC(N)=S)c2cc(Br)ccc21
  A: 21% | B: 22% | C: -8% | D: -26% | E: 8.9µM* | F: -1%

> NC(=S)N=Nc1c(O)n(Cc2ccc(F)cc2)c2ccccc12
  A: -13% | B: 1% | C: i | D: ? | E: ? | F: -1%

> NC(=S)N=Nc1c(O)n(Cc2ccc(Br)cc2)c2ccccc12
  A: 13% | B: 9% | C: i | D: 2.5µM* | E: 2.5µM* | F: -5%

An excerpt from above, reduced to miR-21 reporter and HEK293 tox:
SMILES	miR-21 reporter	HEK293 tox
NC(=S)N=Nc1c(O)n(Cc2ccc(Br)cc2)c2ccccc12	13%	2.5µM*
CC(C)CCNC(=S)Nc1ccc([N+](=O)[O-])cc1	28%	?
Cc1c(Cl)ccc2c(C(=O)NCCN3CCCCC3)cc(-c3ccccn3)nc12	-5%	?
NC(=S)N=Nc1c(O)n(Cc2ccc(F)cc2)c2ccccc12	-13%	?

Going on with the list.
Key to letters – A = miR-21 reporter; B = GLP1R ag; C = PTHR1 ag; D = HEK293 tox; E = GLP1R inv ag; F = Pin1 inh
> Cc1ccc2c(c1)c(N=NC(N)=S)c(O)n2Cc1ccccc1
  A: -6% | B: 8% | C: i | D: ? | E: -4% | F: -9%

> CCOc1ccc(C(=O)NCC(c2ccc3c(c2)OCO3)N2CCN(C)CC2)cc1 (stereo not given)
  A: -4% | B: nt | C: -11% | D: -9% | E: -11% | F: -9%

> N#Cc1nc(Nc2cccc(F)c2)nc(NC2CCCC2)n1
  A: nt | B: nt | C: nt | D: nt | E: nt | F: -9%

> CCOc1ccc(S(=O)(=O)n2cc(-c3ccc(F)cc3)c(N)n2)cc1
  A: -4% | B: 1% | C: i | D: 3% | E: ? | F: 3%

> CCOc1cc(S(=O)(=O)n2cc(-c3ccc(F)cc3)c(N)n2)cc(OCC)c1OCC
  A: 27% | B: 1% | C: -33%[57.5 µM] | D: ? | E: 2.2µM* | F: ?

> O=S(=O)(c1ccc(Cl)cc1)N1CCN(c2nc(Nc3cc(Cl)ccc3O)nc3ccccc23)CC1
  A: nt | B: nt | C: nt | D: nt | E: nt | F: 1%[81.2 µM]

> CCOC(=O)c1c(C)[nH]c(C)c1S(=O)(=O)N1CCN(c2cccc(C(F)(F)F)c2)CC1
  A: 18% | B: nt | C: 7% | D: ? | E: 5.6µM* | F: -6%

> CC(=O)c1ccccc1S(=O)(=O)N1CCN(c2nc(-c3cccs3)nc3ccccc23)CC1
  A: nt | B: nt | C: nt | D: nt | E: nt | F: 65%

> CCn1nc(C)c2c(-c3ccccc3)cc(=O)n(C(C)C(=O)Nc3cccc(F)c3)c21 (stereo not given)
  A: 17% | B: nt | C: i | D: 0% | E: 7.9µM* | F: 2%

> CCn1nc(C)c2c(-c3ccccc3)cc(=O)n(C(C)C(=O)Nc3cc(C)ccc3C)c21 (stereo not given)
  A: 3% | B: nt | C: -6% | D: 26% | E: 12% | F: 17%

(further entries)
Key to letters – A = miR-21 reporter; B = GLP1R ag; C = PTHR1 ag; D = HEK293 tox; E = GLP1R inv ag; F = Pin1 inh
> O=C(OCc1ccccc1)N(CCCCN(CCCNCc1ccccc1)C(=O)OCc1ccccc1)CCCNCc1ccccc1
  A: nt | B: -5% | C: -35% | D: ? | E: 2.8µM* | F: 7%

> Cc1ccc(C(CC(=O)NCCCN(C)C)c2ccc(OC(C)C)cc2)cc1 (stereo not given)
  A: 0% | B: 8% | C: i | D: -17% | E: 11µM* | F: 6%

> CCOC(=O)c1c(NC(=O)C(C)NCc2ccco2)sc2c1CCC(C)C2 (stereo not given)
  A: 11% | B: 14% | C: i | D: ? | E: 4µM* | F: ?

> CN1CC2(Cc3cc([N+](=O)[O-])ccc31)C(=O)OC(C)(C)OC2=O
  A: nt | B: nt | C: nt | D: nt | E: nt | F: 25%

> CC(C)(C)Cc1c(-c2ccc(Cl)cc2)nc2ccc(Br)cn12
  A: nt | B: -3% | C: -88% | D: ? | E: 10µM* | F: nt

> CC(C)(C)Cc1c(-c2ccccc2)nc2ccc(Cl)cn12
  A: nt | B: -6% | C: -28% | D: ? | E: 13µM* | F: nt

> CCc1ccccc1NC(=O)Nc1cc(C(=O)NCc2cccc(F)c2)ccc1N1CCCC1
  A: -3% | B: nt | C: i | D: 2% | E: 20% | F: ?

> O=S(=O)(c1cccs1)N1CN(Cc2cccs2)c2nc3ccccc3nc21
  A: -9% | B: 6% | C: i | D: -2% | E: 10µM* | F: 42%

> CCc1ccc2occ(CC(=O)Nc3ccc(OC)c(Cl)c3)c2c1
  A: -2% | B: nt | C: -34% | D: 1% | E: ? | F: 14%

> CC[C@@H]([C@H](C)O)n1ncn(-c2ccc(N3CCN(c4ccc(OCC5CO[C@@](Cn6cncn6)(c6ccc(F)cc6F)C5)cc4)CC3)cc2)c1=O (stereo not given in full)
  A: nt | B: -5% | C: nt | D: nt | E: nt | F: nt

Going on with the list.
Key to letters – A = miR-21 reporter; B = GLP1R ag; C = PTHR1 ag; D = HEK293 tox; E = GLP1R inv ag; F = Pin1 inh
> CCn1cnc2c(Nc3cc(F)cc(F)c3)nc(C(=O)COc3c(F)c(F)cc(F)c3F)nc21
  A: nt | B: nt | C: nt | D: nt | E: nt | F: -12%

> Cc1cccc(-c2nc(NCCCN3CCOCC3)c3ccccc3n2)c1
  A: 11% | B: 11% | C: i | D: ? | E: 8.9µM* | F: 10%

> CCCN(CCC)c1nn2c(=O)c(C(=O)NCc3cc(Br)ccc3OC)cnc2s1
  A: -3% | B: nt | C: i | D: 13% | E: 8% | F: 0%

> CCn1cc2nc(SCc3ccc(C)cc3)n(CCc3ccccc3)c(=O)c2n1
  A: 9% | B: nt | C: -4% | D: -5% | E: ? | F: 0%

> CCn1cc2nc(SCc3ccc(F)cc3)n(CCc3ccccc3)c(=O)c2n1
  A: 20% | B: nt | C: -30% | D: 1% | E: 7.9µM* | F: ?

> COC(=O)c1[nH]c2cc(C)ccc2c1NC(=O)CN1CCOCC1
  A: -11% | B: 11% | C: i | D: 6% | E: 26% | F: 0%

> COc1cccc(NC(=O)N2CCN(c3cccc(C)c3)C(C)C2)c1 (stereo not given)
  A: -12% | B: 1% | C: -3%[57.5 µM] | D: -8% | E: 10µM* | F: ?

> COC(=O)c1[nH]c2cc(OC)ccc2c1NC(=O)CN1CCN(c2cccc(C)c2)C(C)C1 (stereo not given)
  A: 21% | B: -8% | C: -6% | D: ? | E: 8.9µM* | F: 16%

> COC(=O)c1[nH]c2cc(C)ccc2c1NC(=O)CN1CCN(c2ccccc2OC)CC1
  A: 18% | B: -2% | C: -18%[57.5 µM] | D: -18% | E: 3.2µM* | F: ?

> Cc1cc2c(s1)c1cnn(Cc3cc(F)cc(F)c3)c(=O)c1n2C
  A: nt | B: nt | C: nt | D: nt | E: nt | F: 3%

> O=C1c2ccccc2C(=O)N1c1cccc(O)c1
  A: nt | B: nt | C: nt | D: nt | E: nt | F: -3%

> CCN(c1ccc(NS(=O)(=O)c2cc(Cl)ccc2Cl)cc1)C(C)C
  A: 15% | B: -1% | C: -32% | D: 10% | E: 11µM* | F: ?

> Cc1noc(C)c1CSCC(=O)Nc1cc(Cl)ccc1N1CCCCC1
  A: nt | B: -3% | C: -11% | D: 7% | E: 11µM* | F: 10%

Screens deposited in PubChem by National Center for Advancing Translational Sciences (NCATS).
